# Results taken from publication PMC7588595, “Small-molecule active pharmaceutical ingredients of approved cancer therapeutics inhibit human aspartate/asparagine-β-hydroxylase” (Bioorganic & Medicinal Chemistry, 2020).
# Molecular target: T1, His6-AspH315–758 (Homo sapiens, UniProt Q12797)
# T1 construct: A mixture of SYPRO orange (1‰v/v) and His6-AspH315–758 (4 μM) in 50 mM aqueous HEPES buffer; made in house; host or cells: Escherichia coli BL21 (DE3), pET-28a(+) vector
# T1 sequence (Q12797 315-758): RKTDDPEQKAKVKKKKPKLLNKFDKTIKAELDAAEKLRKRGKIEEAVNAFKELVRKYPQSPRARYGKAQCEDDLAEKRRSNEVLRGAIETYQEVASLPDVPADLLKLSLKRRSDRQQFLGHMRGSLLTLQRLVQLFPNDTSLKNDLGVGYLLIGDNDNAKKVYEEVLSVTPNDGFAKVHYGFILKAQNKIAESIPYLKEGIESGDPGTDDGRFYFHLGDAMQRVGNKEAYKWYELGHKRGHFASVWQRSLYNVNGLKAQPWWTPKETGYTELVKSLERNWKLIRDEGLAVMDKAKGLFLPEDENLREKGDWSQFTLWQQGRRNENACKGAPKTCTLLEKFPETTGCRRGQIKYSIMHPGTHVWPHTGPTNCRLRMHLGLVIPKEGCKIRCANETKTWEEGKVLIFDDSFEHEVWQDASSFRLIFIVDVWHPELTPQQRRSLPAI
# Experiment: AspH differential scanning fluorimetry (DSF) assay, melting temperature shift
# Format: binding
# Description: A mixture of SYPRO orange (1‰v/v) and His6-AspH315–758 (4 μM) in 50 mM aqueous HEPES buffer (pH 7.5, 150 mM NaCl, 50 μM NiCl2) was carefully pipetted into a 96-well VWR PCR-plate (38 μL per well). An inhibitor solution (0.8 mM in DMSO) or a negative control sample (pure DMSO) was added to each well (2 μL per well, final inhibitor concentration of 40 μM) and the resulting solutions were gently mixed using a pipette. The plate was sealed with optical tape (Bio-Rag, iCycler iQ), centrifuged (5 sec, 1000 rpm) and placed into a C1000Touch Thermal Cycler equipped with a CFX96 Real-Time System (Bio-Rad). The instrument was heated with a rate of 1 °C per cycle (starting at an initial temperature of 25 °C; 70 cycles total). Data were analyzed using Microsoft Excel and GraphPad Prism according to the literature.[107] DSF assays were performed in independent duplicates, each composed of technical duplicates (Supporting Fig. S4).
compound,measurement,value
"Cc1c(N)nc([C@H](CC(N)=O)NC[C@H](N)C(N)=O)nc1C(=O)N[C@H](C(=O)N[C@H](C)[C@@H](O)[C@H](C)C(=O)N[C@H](C(=O)NCCc1nc(-c2nc(C(=O)NCCC[S+](C)C)cs2)cs1)[C@@H](C)O)[C@@H](O[C@@H]1O[C@@H](CO)[C@@H](O)[C@H](O)[C@@H]1O[C@H]1O[C@H](CO)[C@@H](O)[C@H](OC(N)=O)[C@@H]1O)c1c[nH]cn1 [Bleomycin A2, reference compound]",Tm-shift (ΔTm) of AspH,−0.8 ± 0.4 °C and ~ −0.8 °C

# “And” between values parts separate entries of the source, which are not always exact repeats. Equal entries are not always repeated.
